# Binding of CDR-mutated scFvs to a peptide of the spike HR2 region

Values reported by Li et al. 2023, doi:10.1038/s41467-023-39022-2 (FLAb copy).

Target: peptide PDVDLGDISGINAS, taken from heptad repeat 2 (HR2) of SARS-CoV-2 spike.

Parent scFv Ab-14: VH joined to VL by three GGGGS repeats. Changes lie in the light chain CDRs alone.
VH: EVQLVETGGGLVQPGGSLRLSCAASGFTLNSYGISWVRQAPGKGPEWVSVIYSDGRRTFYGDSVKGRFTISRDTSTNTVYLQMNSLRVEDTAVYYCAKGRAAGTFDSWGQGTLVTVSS
VL: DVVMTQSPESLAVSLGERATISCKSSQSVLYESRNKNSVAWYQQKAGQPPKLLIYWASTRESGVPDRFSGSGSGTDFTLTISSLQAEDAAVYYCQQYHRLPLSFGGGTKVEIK

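Phage display of a naive human antibody library on the peptide gave the parent. These sequences belong to a second round, designed from the earlier measurements on random variants of the parent. Several design methods are mixed in this list. AlphaSeq pools MATa yeast showing the antibodies with MATalpha yeast showing the peptide. Binding brings cells together so that they mate, and sequencing counts the barcode pairs among the diploids. Read counts were normalised to the haploid input and turned into Kd by a linear fit to BCL2-family pairs of known affinity, for each replicate. Mating was done six times.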

Changes read parent residue, position, new residue, counted from the first residue of the VL shown.
This list holds designs with at most six substitutions.
Scale: log10 of Kd in nM, estimated from mating counts; low values are strong binders.
Where no diploid with the target was found in that replicate, the entry reads "nd": below detection, most likely a poor binder, though not proof of it.
Nonspecific signal, from three strains lacking the peptide, appeared in 4% of pairings of all light chain designs, centred on 2.64 (5% of these signals below 1.59); values are not corrected for it. Also given: how often the same scFv was detected with the empty control strains.
In the paper, a design with two or fewer of six values counts as a poor binder.
A sequence measured in both rounds can read differently, since the two assays cover different ranges.
Of ten entries with the parent sequence, four were seen in most replicates (averages 0.34 to 2.37), three in one and three in none, so single entries are noisy.

* S25I/S26F/N35Q/W56N/T59D/E61M: 0.57, -0.05, -0.21, 0.24, 0.34, 0.86 (controls 0 of 18)
* Q27E/L30Q/Y31M: 1.05, 0.80, 1.20, 1.27, 1.45, 1.26 (controls 5 of 18)
* S25I/S26D/T59M: 2.19, 2.28, 1.22, 1.11, 1.64, 1.63 (controls 0 of 18)
* K36V/Y97D: 0.96, nd, 1.46, nd, nd, 1.60 (controls 0 of 18)
* K24Y/S26L/S28D/W56H/S62D: 0.30, 0.57, 0.83, 2.15, 1.18, 0.02 (controls 0 of 18)
* Q27G/V29Y/W56E: -0.17, -0.31, -0.39, -0.29, -0.42, -0.14 (controls 1 of 18)
* L30P/Y31A/W56N/Y97D: nd, 2.40, 2.28, nd, 3.04, nd (controls 1 of 18)
* Y97A: nd, nd, nd, nd, nd, nd (controls 0 of 18)
* Y31R/L102P: nd, nd, nd, nd, nd, nd (controls 1 of 18)
* S25V/Q27V/V29Q/L30P/W56N/S62E: -0.36, -0.38, -0.69, -0.64, -0.54, -0.35 (controls 1 of 18)
* S25Q/W56D/S103F: 0.07, -0.09, -0.35, -0.17, -0.13, -0.09 (controls 3 of 18)
* S25L/L30M/W56N/Q96D: 0.00, -0.15, -0.17, -0.15, -0.19, -0.08 (controls 3 of 18)
* S25L/W56H/E61C/S62D: -0.05, -0.04, -0.13, -0.16, -0.10, 0.13 (controls 0 of 18)
* S25Q/S28E/V29K/S38N/W56D/S62Q: 0.54, 0.61, -0.06, 0.02, 0.40, 0.07 (controls 0 of 18)
* S25L/S26Q/V29N/W56N/S62V: -0.13, -0.10, -0.28, -0.56, -0.26, 0.15 (controls 0 of 18)
* K24Y/Q27I/V29Y/R34P/W56E/S62R: 0.78, 0.80, 0.59, 0.69, 0.48, 0.64 (controls 0 of 18)
* S25L/S33M/W56N/E61C: 0.77, 0.96, 0.60, 0.54, 0.47, 0.80 (controls 0 of 18)
* S25L/S38N/W56E/Q96A: 0.01, 0.00, -0.02, -0.23, -0.38, 0.14 (controls 3 of 18)
* S25L/S26P/V29Y/W56Q: 0.90, 0.84, 1.28, 0.35, 0.81, 0.83 (controls 0 of 18)
* Q27L/N35L/W56G/Q96Y: nd, nd, nd, nd, nd, nd (controls 0 of 18)
* S25W/Q27F/Y31G/W56D: 0.44, 0.54, 0.28, 0.36, 0.51, 0.80 (controls 1 of 18)
* Y31G/P101I: 1.59, 1.49, 2.29, 1.24, 1.72, 1.59 (controls 1 of 18)
* S25M/L30W/W56E: 1.39, 0.36, 1.23, -0.14, -0.15, 0.48 (controls 0 of 18)
* T59I/Q96N: nd, nd, nd, nd, 2.80, nd (controls 0 of 18)
* S25F/Y31D/W56K: 0.28, 0.18, 0.04, -0.13, 0.15, 0.32 (controls 0 of 18)
* K24H/Q27P/K36G/W56N/S62L: 0.43, 0.14, 0.07, 0.24, 0.16, 0.26 (controls 0 of 18)
* S25V/Y31M/W56E/E61Q: -0.05, -0.18, -0.16, -0.36, -0.36, -0.15 (controls 0 of 18)
* S25L/Q27G/V29Q/W56H: -0.06, -0.39, -0.39, -0.25, -0.46, -0.36 (controls 1 of 18)
* S25F/S28K/S33H/N35V/W56N: 0.55, 0.33, 0.33, 0.35, 0.53, 0.47 (controls 1 of 18)
* S25L/S33W/S62G/P101S: nd, 1.49, 2.10, 3.03, 3.08, nd (controls 0 of 18)
* K36P/T59K/E61A/Q96A: 1.63, 1.93, 1.39, 2.27, 2.35, 1.78 (controls 2 of 18)
* S33V/R34N/S103L: 2.42, 2.66, nd, 2.21, 2.06, 2.77 (controls 1 of 18)
* S25C/Q27V/W56N/S58Q/R99E: 0.48, 0.39, 0.26, 0.39, 0.35, 0.65 (controls 1 of 18)
* Y31S/W56A: 1.01, 0.94, 1.04, 1.11, 1.25, 1.07 (controls 3 of 18)
* S25L/V29M/L30D/W56N/E61L: 0.14, -0.12, -0.09, 0.09, -0.16, 0.01 (controls 3 of 18)
* K24H/S25L/Q27W/S28V/V29Y/W56N: 0.33, 0.17, 0.12, 0.07, 0.14, 0.37 (controls 2 of 18)
* S38A/W56Y/E61D: 0.59, 1.01, 0.75, 0.78, 1.08, 0.79 (controls 1 of 18)
* S25L/S26L/N35Q/W56H/S62D: 0.73, 1.37, 0.75, 0.83, 0.86, 1.08 (controls 1 of 18)
* V29D/R34D/W56A/H98L: 0.74, 0.93, 0.50, 0.45, 0.29, 0.83 (controls 1 of 18)
* S25F/K36M/W56L/S62E/S103D: 2.22, 1.60, 1.65, 2.24, 1.76, 1.77 (controls 1 of 18)
* S25L/E32G/S33Q/W56N/E61M/S103Y: -0.02, -0.23, -0.32, -0.33, -0.13, 0.13 (controls 1 of 18)

The opening 7 entries, copied out:

| changes | replicates, log10 nM | control signals |
|---|---|---|
| S25I/S26F/N35Q/W56N/T59D/E61M | 0.57, -0.05, -0.21, 0.24, 0.34, 0.86 | 0 of 18 |
| Q27E/L30Q/Y31M | 1.05, 0.80, 1.20, 1.27, 1.45, 1.26 | 5 of 18 |
| S25I/S26D/T59M | 2.19, 2.28, 1.22, 1.11, 1.64, 1.63 | 0 of 18 |
| K36V/Y97D | 0.96, nd, 1.46, nd, nd, 1.60 | 0 of 18 |
| K24Y/S26L/S28D/W56H/S62D | 0.30, 0.57, 0.83, 2.15, 1.18, 0.02 | 0 of 18 |
| Q27G/V29Y/W56E | -0.17, -0.31, -0.39, -0.29, -0.42, -0.14 | 1 of 18 |
| L30P/Y31A/W56N/Y97D | nd, 2.40, 2.28, nd, 3.04, nd | 1 of 18 |